Earlier results in patent US11103684B2, “Systems, devices, and methods for treating a pulmonary disorder with an agent” (Holaira, Inc., priority 2013, dated 2021).

Settings: cited from earlier work

CCCCC(CC)CCC(CC(C)C)OS(=O)(=O)O (stereo not shown)
Solubility in Water (mg/L): 50,000 mg/L
